Consider one compound from ChEMBL document CHEMBL2157876, “Identification of a 2-phenyl-substituted octahydrobenzo[f]quinoline as a dopamine D₃ receptor-selective full agonist ligand” (Bioorg Med Chem, 2012).

Amino acid sequences for entries named in this document (tags omitted).
UniProt P35462, whole entry: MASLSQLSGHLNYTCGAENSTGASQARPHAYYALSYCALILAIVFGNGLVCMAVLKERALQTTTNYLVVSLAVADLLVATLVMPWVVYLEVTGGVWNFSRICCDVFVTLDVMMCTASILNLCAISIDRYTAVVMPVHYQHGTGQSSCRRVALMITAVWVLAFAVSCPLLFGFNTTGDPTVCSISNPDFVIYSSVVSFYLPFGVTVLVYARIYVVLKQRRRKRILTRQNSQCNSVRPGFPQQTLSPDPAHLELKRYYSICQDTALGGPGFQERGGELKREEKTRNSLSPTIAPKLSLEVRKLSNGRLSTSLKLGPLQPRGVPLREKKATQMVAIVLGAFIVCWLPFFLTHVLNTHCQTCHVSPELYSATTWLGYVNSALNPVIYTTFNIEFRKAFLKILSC

The assay deals with D(3) dopamine receptor (Homo sapiens, UniProt P35462). The experiment in a line: Agonist activity at dopamine D3 receptor in human U2OS-D3 cells assessed as EA-tagged beta-arrestin translocation after 1.5 hrs by luminescence based beta-galactosidase assay relative to dopamine. It is filed as functional, cell-based.

For `CCCN(CCC)C1CCc2ccc(O)cc2C1` (racemic), the Emax is 103%.

A word on the Emax: it is the maximal effect, on the per cent scale that the assay sets.
